Consider one compound from patent US11124490B2, “Autotaxin inhibitors” (UNIVERSITY OF TENNESSEE RESEARCH FOUNDATION, priority 2016, dated 2021).

Chains of the proteins cited; added tags and fusions are not shown.
UniProt Q92633, whole entry: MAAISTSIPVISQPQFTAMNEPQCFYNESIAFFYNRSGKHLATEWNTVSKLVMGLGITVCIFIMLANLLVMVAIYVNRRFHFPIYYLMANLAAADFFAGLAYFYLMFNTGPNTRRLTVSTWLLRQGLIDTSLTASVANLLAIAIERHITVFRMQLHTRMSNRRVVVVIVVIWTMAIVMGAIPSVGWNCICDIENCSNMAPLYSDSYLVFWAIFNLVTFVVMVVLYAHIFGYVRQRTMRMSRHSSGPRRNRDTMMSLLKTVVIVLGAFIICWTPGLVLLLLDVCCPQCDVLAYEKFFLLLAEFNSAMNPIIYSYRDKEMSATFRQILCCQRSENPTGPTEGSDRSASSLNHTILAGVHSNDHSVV

The assay has as its target LPA1 receptor (Homo sapiens (Human), UniProt Q92633). Put plainly: LPA-mediated Ca2+ mobilization, LPA1 RH7777 cells.

For `CCCCCCCC/C=C\CCCCCCCC(=O)OCC(O)COP(=O)(O)O` (centres unmarked), the “Emax (% LPA), LPA1 RH7777” value (normalized to LPA 18:1 Emax) is recorded as 100.00 % LPA. For the same compound, for the setting “read-out: EC50 or IC50 (μM), LPA1 RH7777, EC50 of LPA 18:1 alone”, the EC50 amounted to 0.08 µM.
